# CycPeptMPDB entries from one study

Source: CycPeptMPDB (Li et al. 2023), which took these values from García-Pindado et al. 2018, doi:10.1002/bip.23112.

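Lipid, pH, incubation time, direction and concentration are not recorded in the data file. The list need not hold all peptides of the study. Entries at the database's floor value (log10 P of -10) are not listed.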

PAMPA measures passive passage through an artificial lipid membrane.
Permeability is given as log10 of P in cm/s; higher (less negative) is more permeable.

| PAMPA (log10 cm/s) | structure (SMILES) |
|---|---|
| -5.34 | NCCCC[C@@H]1NC(=O)[C@H](Cc2c[nH]c3cc(Br)ccc23)NC(=O)[C@H](CCCCN)NC(=O)[C@H]2CCCN2C(=O)[C@H](Cc2c[nH]c3cc(Br)ccc23)NC1=O |
| -5.89 | NCCCC[C@@H]1NC(=O)[C@H](Cc2c[nH]c3c(Br)cccc23)NC(=O)[C@H](CCCCN)NC(=O)[C@H]2CCCN2C(=O)[C@H](Cc2c[nH]c3c(Br)cccc23)NC1=O |
| -5.57 | NCCCC[C@@H]1NC(=O)[C@H](Cc2c[nH]c3ccccc23)NC(=O)[C@H](CCCCN)NC(=O)[C@H]2CCCN2C(=O)[C@H](Cc2c[nH]c3ccccc23)NC1=O |
| -5.33 | NCCCC[C@@H]1NC(=O)[C@H](Cc2c[nH]c3ccc(Br)cc23)NC(=O)[C@H](CCCCN)NC(=O)[C@H]2CCCN2C(=O)[C@H](Cc2c[nH]c3ccc(Br)cc23)NC1=O |